Curated experimental data: melting point values

Data: OPERA 2.9 data sets, kmansouri/OPERA on GitHub.

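The OPERA project collected these measurements from public sources as training and test data for property models. One number stands for a compound and property, with no spread given. Method and conditions are not stated for these values. A value may pool stereoisomers or salt forms, and the file does not say which form was measured. Some entries may be limits or estimates that an upstream database listed as plain numbers.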

Melting points are in °C.
Cells with "–" have no entry in this list.
The databases behind each value are named after "via".

compound,name,mp (°C),via
Cc1nnnn1-c1cccc(N)c1,3-(5-methyl-1H-tetrazol-1-yl)aniline,122,OCHEM
C=C(CCCCCC)CCCCCCCC,7-Methylenepentadecane,-36,eChemPortal
O=C1/C(=C\c2ccccc2)SC(=S)N1/N=C/c1ccccc1O,5-Benzylidene-3-salicylideneaminorhodanine,152,OCHEM
CCCCCCCCCCCCCCCC(=O)O[C@@H]1C[C@@H](C(=O)O)N(C(=O)CCCCCCCCCCCCCCC)C1,–,69,eChemPortal
Cc1ccc(-c2n[nH]c(=S)[nH]c2=O)cc1,–,226,OCHEM
Clc1ccccc1-c1cc(Cl)c(Cl)c(Cl)c1,–,106,OCHEM
BrCCOc1ccc2ccccc2c1,2-(2-bromoethoxy)naphthalene,95,OCHEM
Fc1ccc(Nc2n[nH]c(=S)s2)cc1,"5-[(4-fluorophenyl)amino]-1,3,4-thiadiazole-2-thiol",186,OCHEM
C=CC(=O)OCCCCCCOc1ccc(C(=O)Oc2ccc(C#N)cc2)cc1,4-cyanophenyl-4-(6-(acryloyloxy)hexyloxy)benzoate,73,eChemPortal
N#Cc1ccc(-c2csc(N)n2)cc1,"4-(2-amino-1,3-thiazol-4-yl)benzonitrile",268,OCHEM
O=S(=O)([O-])CC(O)CCl.[Na+] (centres undefined),Sodium 3-chloro-2-hydroxypropylsulfonate,244.7,eChemPortal
C=CC(=O)OCCOc1ccccc1,2-Phenoxyethyl acrylate,-74,eChemPortal
CC(C=O)Cc1ccc(C(C)C)cc1 (centres undefined),Cyclamen aldehyde,-16.6,"OCHEM, eChemPortal"
COC(=O)c1cc(C)ccc1C1=NC(=O)C(C)(C(C)C)N1 (centres undefined),–,113,OCHEM
Cc1ccn2c(=O)c(C(=O)O)cnc2c1,"8-methyl-4-oxo-4H-pyrido[1,2-a]pyrimidine-3-carboxylic acid",242,OCHEM
CO[Si](OC)(OC)C1CCCC1,CYCLOPENTYLTRIMETHOXYSILANE,-80.15,eChemPortal
CC(C)(C)N(NC(=O)c1ccccc1)C(=O)c1ccccc1Br,N'-Benzoyl-2-bromo-N-(2-methyl-2-propanyl)benzohydrazide,196,OCHEM
O=C(Nc1ccccc1C(=O)O)c1ccc(Cl)cc1,2-[(4-chlorobenzoyl)amino]benzoic acid,209,OCHEM
CNS(=O)(=O)c1ccc(C(C)=O)cc1,–,110,OCHEM
CCOCCCNC(=O)CC#N,2-cyano-N-(3-ethoxypropyl)acetamide,47,OCHEM
CCCC(=O)OCc1ccccc1,Benzyl butyrate,-14.3,eChemPortal
CC(=O)NC(C(=O)O)C1CCCC1 (centres undefined),Acetamido(cyclopentyl)acetic acid,173,OCHEM
C=CC(=O)Oc1c(Cc2cc(C)cc(C(C)(C)C)c2O)cc(C)cc1C(C)(C)C,–,133.2,eChemPortal
CCCC(=O)O[C@]1(C(=O)CO)CC[C@H]2[C@@H]3CCC4=CC(=O)CC[C@]4(C)[C@H]3[C@@H](O)C[C@@]21C,Hydrocortisone 17-butyrate,218,OCHEM
CC(C)[C@@H]1CC[C@@H](C)C[C@H]1OC(=O)[C@@H]1O[C@@H](O)CS1,–,95.6,eChemPortal
Nc1cc2c(cc1N)OCCO2,"2,3-Dihydro-1,4-benzodioxine-6,7-diamine",125,OCHEM
Nc1cc(C(F)(F)F)ccc1NCc1ccccc1,"N~1~-Benzyl-4-(trifluoromethyl)benzene-1,2-diamine",72.5,OCHEM
COc1cc2c(cc1OC)CC(=O)NCC2,"7,8-Dimethoxy-1,3,4,5-tetrahydro-2H-3-benzazepin-2-one",193,OCHEM
C=CCc1cc(OCC)ccc1O,2-allyl-4-ethoxyphenol,136,OCHEM
O=C1c2ccccc2C(c2ccc(O)cc2)(c2ccc(O)cc2)N1c1ccccc1,"3,3-Bis(4-hydroxyphenyl)-2-phenylisoindolin-1-one",294.5,eChemPortal
CC(C)c1cc(C(C)C)c(N=C=Nc2c(C(C)C)cc(C(C)C)cc2C(C)C)c(C(C)C)c1,"N,N'-bis(2,4,6-Triisopropylphenyl)methanediimine",-40.4,eChemPortal
O=S1(=O)CCC(S(=O)(=O)Cl)C1 (centres undefined),"tetrahydrothiophene-3-sulfonyl chloride 1,1-dioxide",115,OCHEM
CC(C)CNS(=O)(=O)c1ccc(C(=O)O)cc1,4-[(Isobutylamino)sulfonyl]benzoic acid,239,OCHEM
CC(=O)Nc1c(C)cccc1C(=O)O,2-Acetamido-3-methylbenzoic acid,205,OCHEM
FC(F)(F)C(F)(F)C(F)(F)C(F)(F)C(F)(F)C(F)(F)c1ccc(-c2ccc(-c3ccc(-c4ccc(C(F)(F)C(F)(F)C(F)(F)C(F)(F)C(F)(F)C(F)(F)F)s4)s3)s2)s1,–,207.5,ChemicalBook
CC(=O)/C=C/C1C(C)=CCCC1(C)C (stereo partly drawn),alpha-Ionone,-13.7,"OCHEM, eChemPortal"
N#Cc1c(Cl)nc(Cl)c(Cl)c1Cl,–,149,OCHEM
CC(Br)C(=O)C12CC3CC(CC(C3)C1)C2 (centres undefined),1-(1-adamantyl)-2-bromopropan-1-one,87,OCHEM
O=C1c2ccccc2C2=Nc3cccc4cccc(c34)N12,12H-Phthaloperin-12-one,208,eChemPortal
COC(=O)C(=O)CC(=O)c1ccc(-c2ccccc2)cc1,"Methyl 4-([1,1'-biphenyl]-4-yl)-2,4-dioxobutanoate",143,OCHEM
O=C1CN(C(=O)CCl)c2ccccc2N1,"4-(Chloroacetyl)-3,4-dihydroquinoxalin-2(1H)-one",116,OCHEM
CS(=O)(=O)c1ccc(C(=O)C2C(=O)CCCC2=O)c(Cl)c1COCC1CCCO1 (centres undefined),Tefuryltrione,115,eChemPortal
Cc1ccc(Nc2nc(Nc3ccc(C)cc3)c(N=Nc3ccccc3C(F)(F)F)c(C)c2C#N)cc1,–,247.1,eChemPortal
OCc1cc(Br)cc(CO)c1O,"4-Bromo-2,6-bis(hydroxymethyl)phenol",165,OCHEM
CC(=O)OCCN(CCOC(C)=O)c1ccc(N=Nc2ccc([N+](=O)[O-])cc2C#N)cc1,Disperse Red 82,140.8,eChemPortal
C=COCCCCCCCCCCCC,"Dodecane, 1-(ethenyloxy)-",-11,eChemPortal
Nc1cccc(-c2nnc3n2CCCCC3)c1,"3-{5H,6H,7H,8H,9H-[1,2,4]triazolo[4,3-a]azepin-3-yl}aniline",201,OCHEM
COc1cc(NC(C)=O)c(C(=O)O)cc1OC,"2-Acetamido-4,5-dimethoxybenzoic acid",230,OCHEM
CN(C)CCCNC1CC(C)(C)NC(C)(C)C1,–,-79,eChemPortal

Excerpt, the final 4 entries:

compound,name,mp (°C),via
C=COCCCCCCCCCCCC,"Dodecane, 1-(ethenyloxy)-",-11,eChemPortal
Nc1cccc(-c2nnc3n2CCCCC3)c1,"3-{5H,6H,7H,8H,9H-[1,2,4]triazolo[4,3-a]azepin-3-yl}aniline",201,OCHEM
COc1cc(NC(C)=O)c(C(=O)O)cc1OC,"2-Acetamido-4,5-dimethoxybenzoic acid",230,OCHEM
CN(C)CCCNC1CC(C)(C)NC(C)(C)C1,–,-79,eChemPortal